## Apparent affinities of Ab-14 variants for a coronavirus HR2 peptide

Binding partner: SARS-CoV-2 spike HR2 peptide, sequence PDVDLGDISGINAS.

The variants keep the heavy chain, the linker and the frameworks of Ab-14 (scFv order VH, a (GGGGS)3 linker, VL).
VH: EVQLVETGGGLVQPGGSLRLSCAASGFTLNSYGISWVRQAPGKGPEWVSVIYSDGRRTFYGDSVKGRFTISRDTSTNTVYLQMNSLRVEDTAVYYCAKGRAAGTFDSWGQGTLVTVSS
VL: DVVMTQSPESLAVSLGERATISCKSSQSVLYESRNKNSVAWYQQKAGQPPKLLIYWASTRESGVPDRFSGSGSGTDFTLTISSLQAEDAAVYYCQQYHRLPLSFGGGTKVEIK

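The parent was found by panning a naive human phage display library on the peptide. Designed CDR sequences, proposed from the first random library and measured here. Group labels follow the data file (Ctrl: baseline library sampled from a position-specific scoring matrix, with some repeated check sequences; En: ensemble of fine-tuned language models; GP: Gaussian process model; HC: hill climbing; Gen: genetic algorithm; Gibbs: Gibbs sampling; a sequence that several methods proposed may carry one label only). In AlphaSeq, yeast of one mating type display the scFv and yeast of the other type display the target. The frequency of each diploid, read from paired DNA barcodes, reflects how well the two displayed proteins bind. Each replicate has its own calibration line, from reference interactions of the BCL2 family. Each pool was mated in six replicate cultures.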

Each variant is given by its three light chain CDRs, as the data file delimits them; those of the parent are KSSQSVLYESRNKNSVA, WASTRES, QQYHRLPLS. Values are log10 of the apparent Kd in nM; lower means stronger binding. Replicates are averaged; those with no signal do not enter the mean. Where no diploid with the target was found in any replicate, the entry reads "not detected": below detection, most likely a poor binder, though not proof of it. Entries are sorted by rising average, undetected variants last. Of ten entries with the parent sequence, four were seen in most replicates (averages 0.34 to 2.37), three in one and three in none, so single entries are noisy. The range of this assay differs from that of the first round, and the authors advise against merging the two. Empty control strains, which show no peptide, gave a signal in 4% of pairings with all light chain designs; the median was 2.64 and 95% of these signals were weaker than 1.59. No background was subtracted. The authors averaged sequences with at least three values out of six and counted those with two or fewer as poor binders.

{"CDR-L1": "KSSQSVLYESRNKNSVA", "CDR-L2": "DASTRCS", "CDR-L3": "QQWHRLPLS", "group": "Ctrl", "mean, log10 nM": "-0.14", "replicates with signal": "6 of 6"}
{"CDR-L1": "AQSQSVLYESRNKNSVA", "CDR-L2": "GASTRES", "CDR-L3": "QQYHRLPLS", "group": "GP_HC", "mean, log10 nM": "-0.10", "replicates with signal": "6 of 6"}
{"CDR-L1": "KLSQSWPYESRNKNSVA", "CDR-L2": "NASTRES", "CDR-L3": "QQYHRLPLS", "group": "GP_Gen", "mean, log10 nM": "0.07", "replicates with signal": "6 of 6"}
{"CDR-L1": "KSAYSEGYESGNKNSVA", "CDR-L2": "SASTRSS", "CDR-L3": "QQYHRLPLS", "group": "GP_Gibbs", "mean, log10 nM": "0.08", "replicates with signal": "6 of 6"}
{"CDR-L1": "KLSQSDLYESRNKNSVA", "CDR-L2": "HASTRMS", "CDR-L3": "QQYHRLPLS", "group": "GP_Gen", "mean, log10 nM": "0.13", "replicates with signal": "6 of 6"}
{"CDR-L1": "TVSQVHEMLHRNKNSVA", "CDR-L2": "DANTRES", "CDR-L3": "QQYDRLPLS", "group": "En_HC", "mean, log10 nM": "0.24", "replicates with signal": "6 of 6"}
{"CDR-L1": "WLPMEEQGSDRGKSSVA", "CDR-L2": "DSDARMA", "CDR-L3": "QQYQRLPLS", "group": "En_Gibbs", "mean, log10 nM": "0.25", "replicates with signal": "6 of 6"}
{"CDR-L1": "KWDQSVDGESRNKNSVA", "CDR-L2": "QASQREQ", "CDR-L3": "QQYHRLPLS", "group": "GP_Gibbs", "mean, log10 nM": "0.32", "replicates with signal": "6 of 6"}
{"CDR-L1": "KLQQSWLYESRNKNSVA", "CDR-L2": "SASTRSS", "CDR-L3": "QQYHRLPLS", "group": "GP_Gen", "mean, log10 nM": "0.33", "replicates with signal": "6 of 6"}
{"CDR-L1": "KISMVMENQLKNRNSVA", "CDR-L2": "ELVTRMA", "CDR-L3": "QQYNRLPLS", "group": "En_Gen", "mean, log10 nM": "0.52", "replicates with signal": "6 of 6"}
{"CDR-L1": "KISQMVRVGSTVSNSIA", "CDR-L2": "EEATRSD", "CDR-L3": "QQYHRLPLS", "group": "En_Gen", "mean, log10 nM": "0.58", "replicates with signal": "6 of 6"}
{"CDR-L1": "KFSQSVLYENRTKNSVA", "CDR-L2": "NASTRES", "CDR-L3": "QQYHRLPLS", "group": "En_HC", "mean, log10 nM": "0.61", "replicates with signal": "6 of 6"}
{"CDR-L1": "KIDQSVEYESRDKNSVA", "CDR-L2": "NASTRCQ", "CDR-L3": "QQYHRLPLS", "group": "GP_Gibbs", "mean, log10 nM": "0.65", "replicates with signal": "6 of 6"}
{"CDR-L1": "MIDMGEAPNGQQTSHIA", "CDR-L2": "QGHLKAE", "CDR-L3": "QQYYRLPLC", "group": "En_Gibbs", "mean, log10 nM": "0.69", "replicates with signal": "6 of 6"}
{"CDR-L1": "MISMEEAPAGQQESSIA", "CDR-L2": "HGGTKSE", "CDR-L3": "QQYNRLPLA", "group": "En_Gibbs", "mean, log10 nM": "0.72", "replicates with signal": "6 of 6"}
{"CDR-L1": "HLKQVLNGVNKKMNSVA", "CDR-L2": "HMNTREQ", "CDR-L3": "QQYDHLPLV", "group": "En_Gen", "mean, log10 nM": "0.85", "replicates with signal": "6 of 6"}
{"CDR-L1": "RFDMAMPYAHSNINSIA", "CDR-L2": "EKAIQAD", "CDR-L3": "QQYDRLPLS", "group": "En_Gibbs", "mean, log10 nM": "0.94", "replicates with signal": "6 of 6"}
{"CDR-L1": "QLSMITGHYQMIKNNVA", "CDR-L2": "EMETREN", "CDR-L3": "QQYDRLPLS", "group": "En_Gen", "mean, log10 nM": "1.09", "replicates with signal": "6 of 6"}
{"CDR-L1": "KLRQSHNYESRNKNSVA", "CDR-L2": "NASTRES", "CDR-L3": "QIYHRLPLS", "group": "GP_HC", "mean, log10 nM": "1.46", "replicates with signal": "6 of 6"}
{"CDR-L1": "MLSQMWAIGMKVSNSVA", "CDR-L2": "QASTRFD", "CDR-L3": "QQYERLPLI", "group": "En_Gen", "mean, log10 nM": "1.49", "replicates with signal": "2 of 6"}
{"CDR-L1": "RIDAYPPIQGNNIDSVA", "CDR-L2": "ENAIRLD", "CDR-L3": "QQYARLPLS", "group": "En_Gibbs", "mean, log10 nM": "1.60", "replicates with signal": "6 of 6"}
{"CDR-L1": "KISQMVRVGLTHNNSIA", "CDR-L2": "EEATRAK", "CDR-L3": "QQYHRLPLS", "group": "En_Gen", "mean, log10 nM": "1.63", "replicates with signal": "6 of 6"}
{"CDR-L1": "TISGMTNQAMSKHNSVA", "CDR-L2": "NVTMRPD", "CDR-L3": "QQYHRLPLS", "group": "En_Gen", "mean, log10 nM": "1.96", "replicates with signal": "3 of 6"}
{"CDR-L1": "KSLQLWLYESRNKNSVA", "CDR-L2": "HASTREQ", "CDR-L3": "QQYHRLPLS", "group": "GP_HC", "mean, log10 nM": "2.22", "replicates with signal": "5 of 6"}
{"CDR-L1": "MISQLINMGQFAINSVA", "CDR-L2": "QASLRCN", "CDR-L3": "QQYDRLPLM", "group": "En_Gen", "mean, log10 nM": "not detected", "replicates with signal": "0 of 6"}
{"CDR-L1": "KSSCLVIYESRNKNSVA", "CDR-L2": "WASMRES", "CDR-L3": "QQYHRLPLY", "group": "Ctrl", "mean, log10 nM": "not detected", "replicates with signal": "0 of 6"}
{"CDR-L1": "KSSQSVWYESRNQNSQA", "CDR-L2": "AASYRES", "CDR-L3": "QQYHRLPLN", "group": "Ctrl", "mean, log10 nM": "not detected", "replicates with signal": "0 of 6"}

The 4 strongest on average among those seen in every replicate, once more:

| CDR-L1 | CDR-L2 | CDR-L3 | group | mean, log10 nM | replicates with signal |
|---|---|---|---|---|---|
| KSSQSVLYESRNKNSVA | DASTRCS | QQWHRLPLS | Ctrl | -0.14 | 6 of 6 |
| AQSQSVLYESRNKNSVA | GASTRES | QQYHRLPLS | GP_HC | -0.10 | 6 of 6 |
| KLSQSWPYESRNKNSVA | NASTRES | QQYHRLPLS | GP_Gen | 0.07 | 6 of 6 |
| KSAYSEGYESGNKNSVA | SASTRSS | QQYHRLPLS | GP_Gibbs | 0.08 | 6 of 6 |

Values reported by Li et al. 2023, doi:10.1038/s41467-023-39022-2 (FLAb copy).